From ChEMBL document CHEMBL1134525, “Novel N-(arylalkyl)indol-3-ylglyoxylylamides targeted as ligands of the benzodiazepine receptor: synthesis, biological evaluation, and molecular modeling analysis of the structure-activity relationships” (J Med Chem, 2001)

Assay: Ratio of Ki with out GABA and with GABA

Ratio: 1.13 and 1.1
Structure (SMILES): O=C(N[C@@H]1CCc2ccccc21)C(=O)c1c[nH]c2ccccc12

Where “and” joins values, the source holds several entries; their conditions need not be identical. Identical values can stand only once.
